Columns and labels:
[1] = substrate: Nc1nc(F)nc2c([C@@H]3O[C@H](CO)[C@@H](O)[C@H]3O)n[nH]c12
[2] = substrate: Nc1nc(N)c2[nH]nc([C@@H]3O[C@H](CO)[C@@H](O)[C@H]3O)c2n1
[3] = substrate: Nc1ncnc2c([C@@H]3O[C@H](CO)[C@@H](O)[C@H]3O)[nH]nc12

B1: Adenosine deaminase (Bos taurus), P56658 (protein)
chain: MAQTPAFNKPKVELHVHLDGAIKPETILYYGRKRGIALPADTPEELQNIIGMDKPLSLPEFLAKFDYYMPAIAGCREAVKRIAYEFVEMKAKDGVVYVEVRYSPHLLANSKVEPIPWNQAEGDLTPDEVVSLVNQGLQEGERDFGVKVRSILCCMRHQPSWSSEVVELCKKYREQTVVAIDLAGDETIEGSSLFPGHVKAYAEAVKSGVHRTVHAGEVGSANVVKEAVDTLKTERLGHGYHTLEDATLYNRLRQENMHFEVCPWSSYLTGAWKPDTEHPVVRFKNDQVNYSLNTDDPLIFKSTLDTDYQMTKNEMGFTEEEFKRLNINAAKSSFLPEDEKKELLDLLYKAYGMPSPASAEQCL
Km [1]: 1000 µM
Km [2]: 290 µM
Km [3]: 500 µM

Reference: ChEMBL document CHEMBL1123068, “2-Fluoroformycin and 2-aminoformycin. Synthesis and biological activity” (J Med Chem, 1985)
